In patent publication US9393221B2, “Methods and compounds for reducing intracellular lipid storage” (THE GENERAL HOSPITAL CORPORATION, priority 2011, dated 2016):

Test system: ATGL-KO iPSCs
Test: High throughput iPSC chemical screening, Oil Red O (ORO) lipid accumulation; note: test concentration or dose not given here
Assay type: cell-based, mouse
Conditions: normalized ORO level vs DMSO-treated cells; compound present during 7 days differentiation, 96-well; negative = decrease in lipid accumulation

Q: For `NC(=O)Nc1ccc([As](=O)(O)O)cc1`, which Z-score is on record?
A: 0.3039
